Laboratory results as given in patent USRE42462E1, “Carboxylic acid derivatives, their preparation and use” (Abbott GmbH & Co. KG, priority 1995, dated 2011).

Biological target: T1, ETB receptors (Cavia porcellus, UniProt H0VTF3)
T1 construct: Guinea pig cerebella were homogenized in a Potter-Elvejhem homogenizer; from tissue; host or cells: guinea pig cerebellum membranes
T1 sequence (H0VTF3 27-415): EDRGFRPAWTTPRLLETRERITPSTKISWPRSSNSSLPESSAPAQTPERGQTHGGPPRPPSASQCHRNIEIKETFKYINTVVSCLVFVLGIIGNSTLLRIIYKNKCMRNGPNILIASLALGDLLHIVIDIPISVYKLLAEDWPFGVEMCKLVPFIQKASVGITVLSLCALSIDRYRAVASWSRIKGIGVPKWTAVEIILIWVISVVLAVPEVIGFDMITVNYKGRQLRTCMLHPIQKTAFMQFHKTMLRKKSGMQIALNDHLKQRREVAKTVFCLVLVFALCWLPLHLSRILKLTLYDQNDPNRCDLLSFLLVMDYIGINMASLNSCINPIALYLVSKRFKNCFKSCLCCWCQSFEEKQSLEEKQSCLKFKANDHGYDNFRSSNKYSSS
Assay: ETB receptor binding assay ([125I]-RZ3, guinea pig cerebellar membranes)
Details: 25 pM [125I]-RZ3, 25° C., 30 min

Row | SMILES | Ki [µM]
1 | COc1nc(OC(C(=O)O)C(OC)(c2ccccc2)c2ccccc2)nc2c1CCO2 (centres unmarked) [Compound I-87] | 0.057
2 | COc1cc(C)nc(OC(C(=O)O)C(OC)(c2ccccc2)c2ccccc2)n1 (centres unmarked) [Compound I-103] | 0.029
